System: NIH3T3 cells
Assay: Apoptosis assay in transfected NIH3T3 cells treated with taxol
Assay type: cell-based, mouse
Conditions: transient transfection, taxol treatment
Protocol: Apoptosis assay. Subconfluent cultures of NIH3T3 fibroblasts in 6-well tissue culture plates were co-transfected with 1 μg of lacZ reporter plasmid and 4 μg of various cDNA constructs, including Survivin, bcl-2, XIAP and coil-less Survivin, or control empty vector pcDNA3 using LipofectAMINE, as described above. Forty-eight hours after transfection, cells were fixed in 2% paraformaldehyde for 1 h and stained for β-galactosidase expression with 0.5 mg/ml 5-bromo-4-chloro-3-indolyl β-D-galactoside (Amersham), 5 mM potassium ferrocyanide, 5 mM potassium ferricyanide and 2 mM MgCl2 in PBS. β-Galactosidase-expressing cells were scored morphologically on an inverted microscope. In another series of experiments, BaF3 cells stably transfected with wild type or mutated Survivin constructs were washed, seeded in 96-well plates at 5×10^5/ml and cell viability was determined microscopically by trypan blue exclusion at increasing time intervals following IL-3 withdrawal, as described previously (Ambrosini, 1997).

## XIAP: transfected XIAP cDNA in pcDNA3
  Protection from taxol-induced apoptosis compared with pcDNA3 vector control: increased viability

— patent US6346389B1, “Method for selectively modulating the interactions between survivin and tubulin” (Yale University, priority 1998, dated 2002)
